According to patent US11932602B2, “Method for preparing nicotinamide mononucleotide cocrystal” (BONTAC BIO-ENGINEERING(SHENZHEN) CO., LTD, priority 2021, dated 2024):

Settings: screened with a sieve (1.00 mm, No. 18), poured into glass graduated measuring cylinder, apparent volume
Procedure: The tops were scraped flat. The apparent volumes were recorded. The bulk densities were calculated.

Row | Substance | Bulk density [g/mL]
1 | nicotinamide mononucleotide dimethyl sulfoxide solvate crystal (form 2) [reference compound] | 0.22
2 | nicotinamide mononucleotide-isonicotine cocrystal [Cocrystal in example 1] | 0.67
3 | nicotinamide mononucleotide-isonicotine cocrystal [Cocrystal in example 3] | 0.68
4 | nicotinamide mononucleotide-isonicotine cocrystal [Cocrystal in example 4] | 0.56
